Results on two compounds are retold here after US4948807A, “Phenyl carbamates” (priority 1985, dated 1990).

A short description of one data set: in vivo. To be noted: mouse. On the procedure: Mice were given one of at least three different doses of each compound, orally or subcutaneously, a minimum of 10 mice allotted to each dose. The number of animals which died at each dose within 3 hours was determined.
This experiment was repeated after the animals had been pretreated with atropine sulphate, which blocks both peripheral and central muscarinic receptors.
What is important is the safety of the drugs and the presence and severity of side effects that may occur at therapeutic doses. A commonly-used measure of drug safety is the therapeutic index--or LD50 /ED50 [formula]
It is assumed that the therapeutic effect of these anticholinesterase agents results from an elevation of brain cholinergic activity. This in turn, should be related to the degree of inhibition of acetylcholinesterase. For the purpose of the computation of the denominator of the therapeutic ratio, there is used the dose of drug that inhibits the activity of acetylcholinesterase by 50%. […] The numerator is the dose found to kill 50% of the animals within […] of a subcutaneous injection.

For data set [1], the system named is brain acetylcholinesterase. The method, then:
The effect of each compound on brain acetylcholinesterase in vivo was measured, after subcutaneous or oral administration to mice. Animals were sacrificed, at different times ranging from 0.25-8 hours after drug administration. The brain was rapidly removed, and the enzyme acetylcholinesterase extracted and solubilized with 0.1% Triton, and its ability to hydrolyse acetylthiocholine assessed as described above (in vitro experiments), in comparison with the enzyme removed from mice injected with normal saline.

As for `CNC(=O)Oc1ccc2c(c1)[C@]1(C)CCN(C)[C@@H]1N2C` [Physostigmine, reference compound], the selectivity ratio in “in vivo” (Degree of protection afforded by pretreatment with atropine) came to 3; in “in vivo” (Ratio whose head is drawing 10 (Table 3; oral LD50 compared with s.c. LD50)), 4.1; in “in vivo” (sc, Therapeutic ratio LD50/ED50 s.c.), 3.3. Also, the “Relative potency to physostigmine after oral administration” value in data set [1] (mouse brain, oral, physostigmine = 100) is listed as 100. For the same compound, in data set [1] (mouse brain, s.c.), the “% cholinesterase inhibition 3 hours after s.c. administration” value was 0%. For the same compound, in data set [1] (mouse brain, s.c., physostigmine = 100), the “Relative potency to physostigmine after subcut. (s.c.) administration” value worked out at 100.

`CCN(C)C(=O)Oc1cccc(C(C)N(C)C)c1` (centres unmarked) [RA7, N-ethyl, N-methyl-3[1-(dimethylamino)ethyl]phenyl carbamate]: the “% cholinesterase inhibition 3 hours after s.c. administration” value in data set [1] (mouse brain, s.c.) was found to be 41%. Besides, the “bioavailability after oral administration compared with physostigmine” value in data set [1] (oral, in words) is reported as “better bioavailability after oral administration than physostigmine”.
